Test results published in ChEMBL document CHEMBL1132537, “A series of 6- and 7-piperazinyl- and -piperidinylmethylbenzoxazinones with dopamine D4 antagonist activity: discovery of a potential atypical antipsychotic agent” (J Med Chem, 1999).

By UniProt entry, the sequences of proteins in these tests, tags left out.
UniProt P21917, whole entry: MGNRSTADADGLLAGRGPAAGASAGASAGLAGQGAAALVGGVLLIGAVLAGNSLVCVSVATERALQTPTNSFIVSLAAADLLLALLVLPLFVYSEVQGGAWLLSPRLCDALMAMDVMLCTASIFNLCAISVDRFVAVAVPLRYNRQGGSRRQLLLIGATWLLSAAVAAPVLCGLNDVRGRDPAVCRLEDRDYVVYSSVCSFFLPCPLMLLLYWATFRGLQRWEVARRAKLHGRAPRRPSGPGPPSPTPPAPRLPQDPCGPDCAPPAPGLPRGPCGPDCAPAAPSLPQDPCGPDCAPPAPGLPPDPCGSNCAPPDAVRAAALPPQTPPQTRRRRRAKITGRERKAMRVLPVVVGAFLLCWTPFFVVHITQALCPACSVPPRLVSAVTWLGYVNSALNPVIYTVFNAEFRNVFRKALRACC

Target: D(4) dopamine receptor (Homo sapiens, UniProt P21917)
Assay: biochemical

Structure (SMILES) | Ki
COc1ccc(C2CCN(Cc3ccc4c(c3)NC(=O)CO4)CC2)cc1 | 3.8 nM
Cc1ccc(N2CCN(Cc3ccc4c(c3)OCC(=O)N4)CC2)cc1C | 6.9 nM
Cc1ccc(N2CCN(Cc3ccc4c(c3)NC(=O)CO4)CC2)cc1C | 5.1 nM

Further compounds by falling Ki, results first:

Ki | Structure (SMILES)
12.3 nM | COc1ccc(N2CCN(Cc3ccc4c(c3)NC(=O)CO4)CC2)cc1
10.7 nM | Cc1ccc(N2CCN(Cc3ccc4c(c3)OCC(=O)N4)CC2)cc1
